# From patent publication EP4793277A1, “CARBOXYLIC ACID COMPOUND AND PREPARATION METHOD THEREFOR AND USE THEREOF” (Nutshell Therapeutics (Shanghai) Co., Ltd., priority 2023, dated 2025)
# Amino acid sequences for entries named in this document (tags omitted). A change or cut given only in a name is not applied to a line headed by its entry.
# UniProt Q12809: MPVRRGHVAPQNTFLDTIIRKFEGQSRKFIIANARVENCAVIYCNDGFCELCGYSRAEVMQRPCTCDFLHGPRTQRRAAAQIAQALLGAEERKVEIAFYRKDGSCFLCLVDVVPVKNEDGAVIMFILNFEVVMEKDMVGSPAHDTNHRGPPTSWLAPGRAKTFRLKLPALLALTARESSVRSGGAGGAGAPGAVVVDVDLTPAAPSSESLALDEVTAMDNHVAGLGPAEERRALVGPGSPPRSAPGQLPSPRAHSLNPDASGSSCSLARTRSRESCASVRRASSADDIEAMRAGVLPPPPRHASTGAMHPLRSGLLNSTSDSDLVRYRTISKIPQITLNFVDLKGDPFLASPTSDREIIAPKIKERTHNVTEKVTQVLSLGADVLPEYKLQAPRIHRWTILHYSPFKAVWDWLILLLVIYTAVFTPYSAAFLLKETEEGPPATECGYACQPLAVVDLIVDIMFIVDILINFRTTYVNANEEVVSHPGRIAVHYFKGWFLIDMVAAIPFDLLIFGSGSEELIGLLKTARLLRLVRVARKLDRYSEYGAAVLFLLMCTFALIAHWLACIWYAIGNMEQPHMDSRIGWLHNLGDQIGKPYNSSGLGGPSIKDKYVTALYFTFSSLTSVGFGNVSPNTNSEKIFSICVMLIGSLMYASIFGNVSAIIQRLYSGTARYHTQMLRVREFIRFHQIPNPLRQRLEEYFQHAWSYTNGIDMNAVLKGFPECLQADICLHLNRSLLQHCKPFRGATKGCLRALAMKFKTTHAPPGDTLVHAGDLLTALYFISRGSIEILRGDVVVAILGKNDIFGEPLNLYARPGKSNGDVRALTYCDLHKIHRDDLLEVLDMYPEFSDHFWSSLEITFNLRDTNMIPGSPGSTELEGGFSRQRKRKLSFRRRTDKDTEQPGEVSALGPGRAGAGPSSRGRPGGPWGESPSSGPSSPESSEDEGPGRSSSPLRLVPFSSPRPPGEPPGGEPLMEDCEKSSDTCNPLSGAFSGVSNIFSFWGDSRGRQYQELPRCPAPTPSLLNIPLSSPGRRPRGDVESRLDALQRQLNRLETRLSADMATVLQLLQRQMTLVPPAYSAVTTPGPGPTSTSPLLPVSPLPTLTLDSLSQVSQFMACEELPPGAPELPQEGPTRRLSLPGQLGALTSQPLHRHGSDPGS
# Molecular target: T1, hERG potassium channel (Homo sapiens, UniProt Q12809)
# T1 construct: host or cells: HEK293
# Assay: Manual patch-clamp test of the inhibitory activity on hERG potassium channel
# Assay type: cell-based
# Settings: HEK293 cells stably expressing hERG, pH 7.35, HEK293 cell line stably expressing the hERG ion channel, five concentrations 0.37 to 30 µM, n = 2
# Experimental: Prior to the experiment, the cells were cultured at a density of 5 × 10^5 cells per 3.5 cm culture dish, induced with 1 µg/mL doxycycline for 48 hours, followed by digestion, and seeded onto glass slides for subsequent manual patch-clamp experiments.
# Osmolality of the solutions was controlled between 280 and 300 mOsmol/kg. The solutions were filtered and stored at 4°C prior to use.
# The stock solution was serially diluted 1:3 in DMSO as the solvent to obtain three intermediate solutions with concentrations of 3.33, 1.11, and 0.37 mM. Prior to the experiment, the test compound intermediate solutions were further diluted 1:1000 with extracellular fluid to prepare a series of working solutions.
# Using a 10× objective lens, the tip of the glass electrode was located and positioned at the center of the field of view. […] Once the recorded current stabilized, the last five hERG current values were recorded and averaged as the final current value at a specific concentration. […]
# After perfusion with blank solvent or compound solutions, the average of five consecutive stable current values was calculated as "tail currentblank" and "tail currentcompound", respectively.
# The percentage of current inhibition was calculated using the following formula. tail current inhibition rate = (1−(tail currentcompound −tail currentpositive ctrl)/(tail currentblank −tail currentpositive ctrl)) × 100 [formula] […]
row,Compound,IC50 [µM]
1,COc1cc(S(C)(=O)=O)ccc1NCC#Cc1nc2c(N[C@@H]3CCN(C)C[C@@H]3F)cccn2c1CC(F)(F)F [Cpd-B],5.5
2,"CNC(=O)c1ccc(NCC#Cc2cc3c(N[C@@H]4CCN(C)C[C@@H]4F)cccn3c2CC(F)(F)F)c(OC)c1 [Cpd-C, 4-((3-(8-(((3S,4R)-3-Fluoro-1-methylpiperidin-4-yl)amino)-3-(2,2,2-trifluoroethyl)indolizin-2-yl)prop-2-yn-1-yl)amino)-3-methoxy-N-methylbenzamide]",1.4
